According to ChEMBL document CHEMBL3612019, “Revisiting 1,3,4-Oxadiazol-2-ones: Utilization in the Development of ABHD6 Inhibitors” (Bioorg Med Chem, 2015):

Tests used:
Assay type in all cases: cell-based
[1] = target: T1, Monoacylglycerol lipase ABHD6 (Homo sapiens, UniProt Q9BV23); assay: Inhibition of human ABHD6 expressed in HEK293 cells at 1 uM pre-incubated for 10 mins before 2-AG substrate addition followed by rapid 40 fold compound dilution measured after 10 mins by HPLC method
T1 sequence (Q9BV23 whole entry): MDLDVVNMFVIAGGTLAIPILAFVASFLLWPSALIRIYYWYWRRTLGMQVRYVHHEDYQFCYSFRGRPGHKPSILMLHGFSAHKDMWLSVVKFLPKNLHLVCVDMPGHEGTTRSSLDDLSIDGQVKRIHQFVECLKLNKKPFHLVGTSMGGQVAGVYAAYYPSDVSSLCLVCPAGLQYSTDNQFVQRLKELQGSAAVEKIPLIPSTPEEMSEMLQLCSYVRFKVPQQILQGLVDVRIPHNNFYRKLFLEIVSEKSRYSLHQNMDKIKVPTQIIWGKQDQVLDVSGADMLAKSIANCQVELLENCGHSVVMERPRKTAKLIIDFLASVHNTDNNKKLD
Summary of the method: (§1)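 Reversibility test in 96-well format using a 40-fold dilution method first described for MAGL inhibitors. The inhibitor-treated hABHD6 preparation is rapidly diluted 40-fold, then activity is read at incubation times of 10, 30, 60 and 90 min. Values are pIC50, as means ± SEM of three to seven independent experiments.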

[2] = target: T1, Monoacylglycerol lipase ABHD6; assay: Inhibition of human ABHD6 expressed in HEK293 cells at 1 uM pre-incubated for 10 mins before 2-AG substrate addition followed by rapid 40 fold compound dilution measured after 30 mins by HPLC method; summary of the method: as §1
[3] = target: T1, Monoacylglycerol lipase ABHD6; assay: Inhibition of human ABHD6 expressed in HEK293 cells at 1 uM pre-incubated for 10 mins before 2-AG substrate addition followed by rapid 40 fold compound dilution measured after 60 mins by HPLC method; summary of the method: as §1
[4] = target: T1, Monoacylglycerol lipase ABHD6; assay: Inhibition of human ABHD6 expressed in HEK293 cells at 1 uM pre-incubated for 10 mins before 2-AG substrate addition followed by rapid 40 fold compound dilution measured after 90 mins by HPLC method; summary of the method: as §1

CCCCCCCCCCC[C@@H](C[C@@H]1OC(=O)[C@H]1CCCCCC)OC(=O)[C@H](CC(C)C)NC=O [ORLISTAT]
IC50 [1]: 13.2 nM
IC50 [2]: 14.1 nM
IC50 [3]: 20 nM
IC50 [4]: 37.2 nM
